# According to article PMC3862803, “Human Breast Tumor Cells Are More Resistant to Cardiac Glycoside Toxicity Than Non-Tumorigenic Breast Cells” (PLoS ONE, 2013):
# Test system: p-ERK1/2
# Assay: Western blot of cell lysates for p-ERK1/2
# Format: cell-based, human
# Details: cancer cells (MCF10CA1, MDA-MB-231); staurosporine, 24 hours
smiles,measurement,value
CN[C@@H]1C[C@H]2O[C@@](C)([C@@H]1OC)n1c3ccccc3c3c4c(c5c6ccccc6n2c5c31)C(=O)NC4 [staurosporine],p-ERK expression in lysates (western blot),enhanced p-ERK expression
